Target: fibrinogen (Homo sapiens, UniProt P02675+P02679)
Experiment: Stability in solution at 37° C., assayed by time to visual clot with fibrinogen
Assay type: physicochemical
Conditions: stored in solution at 37° C.; FIG. 3
Protocol: PeproStat (comprising fibrinogen-binding peptides, each of sequence GPRPG (SEQ ID NO: 4) immobilised to HSA carrier) was stored in solution for 6 months at 37° C. At time zero, and various times during the storage period, samples of the stored solution were assayed for ability to form a co-polymer with fibrinogen, as follows:
Fibrinogen was diluted in 10 mM HEPES, 0.15M NaCl, pH 7.3+/1 0.2 to 6 mg/ml. 25 μl PeproStat at 5 mg/ml was added to 4000 of the diluted fibrinogen, and the time taken for formation of a visual clot comprising a co-polymer of PeproStat and fibrinogen was recorded.

Amino acid sequences for entries named in this document (tags omitted). Residues count along the entry.
UniProt P02675, 31-491: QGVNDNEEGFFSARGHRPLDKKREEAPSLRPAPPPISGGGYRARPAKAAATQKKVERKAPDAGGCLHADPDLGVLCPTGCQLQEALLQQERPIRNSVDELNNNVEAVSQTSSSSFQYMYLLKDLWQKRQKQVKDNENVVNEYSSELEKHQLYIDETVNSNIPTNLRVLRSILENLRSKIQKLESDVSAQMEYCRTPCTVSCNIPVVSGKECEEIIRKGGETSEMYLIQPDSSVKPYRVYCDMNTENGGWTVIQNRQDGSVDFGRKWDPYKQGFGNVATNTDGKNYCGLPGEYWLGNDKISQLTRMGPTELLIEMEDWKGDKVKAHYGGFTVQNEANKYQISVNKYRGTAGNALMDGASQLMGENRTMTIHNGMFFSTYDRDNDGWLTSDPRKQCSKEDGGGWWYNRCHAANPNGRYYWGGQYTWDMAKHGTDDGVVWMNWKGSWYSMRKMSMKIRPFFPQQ
UniProt P02679, 27-433 limits assumed: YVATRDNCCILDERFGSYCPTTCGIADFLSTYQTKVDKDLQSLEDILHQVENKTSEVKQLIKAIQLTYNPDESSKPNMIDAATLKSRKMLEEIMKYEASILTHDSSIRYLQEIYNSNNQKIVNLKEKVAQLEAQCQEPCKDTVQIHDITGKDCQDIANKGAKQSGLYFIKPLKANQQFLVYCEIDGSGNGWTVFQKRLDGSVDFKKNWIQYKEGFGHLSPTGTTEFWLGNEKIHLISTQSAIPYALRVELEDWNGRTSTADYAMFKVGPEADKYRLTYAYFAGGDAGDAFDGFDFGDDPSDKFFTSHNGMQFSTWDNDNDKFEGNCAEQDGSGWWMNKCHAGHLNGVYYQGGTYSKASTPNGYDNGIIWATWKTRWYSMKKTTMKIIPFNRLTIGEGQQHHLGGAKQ

## PeproStat: fibrinogen-binding peptide GPRPG linked via PEG12-maleimide to 2-iminothiolane-thiolated human serum albumin carrier
  Stable in solution (ability to form co-polymer with fibrinogen retained): at least 6 months

Source: patent US9724379B2, “Therapeutic agents with improved fibrinogen binding” (Haemostatix Limited, priority 2011, dated 2017)
